The values that follow are results of earlier work, collected in US5565616A (priority 1994, dated 1996).

The conditions of data set [1]: water, cited from earlier work.
For data set [2] the following is noted: cited from earlier work.

Where two headings read alike, the source gives them in different places.

In the case of Mg(OH)2, the Solubility in data set [1] (100 °C) is 40 mg/L; in data set [2] (24.0 MPa, 440 °C), 0.02 mg/L.

As for Na2 SO4, the Solubility in data set [1] (100 °C) is 283,000 mg/L; in data set [2] (27.4 MPa, 350 °C) it was 70,000 mg/L; in data set [2] (29.8 MPa, 407 °C), 136 mg/L; in data set [2] (30.0 MPa, 450 °C) it was 0.02 mg/L.

For the substance Na3 PO4.12H2 O, the Solubility in data set [1] (70 °C) was 1,570,000 mg/L.

Turning to NaNO3, the Solubility in data set [1] (25 °C) is 921,100 mg/L; in data set [1] (100 °C), 1,800,000 mg/L; in data set [2] (27.6 MPa, 450 °C) it was 991 mg/L; in data set [2] (27.6 MPa, 475 °C) it was 630 mg/L; in data set [2] (27.6 MPa, 500 °C) it was 540 mg/L.
